Here are results for seven compounds from ChEMBL document CHEMBL1140434, “1,2,4-Triazolo[1,5-a]quinoxaline as a versatile tool for the design of selective human A3 adenosine receptor antagonists: synthesis, biological evaluation, and molecular modeling studies of 2-(hetero)aryl- and 2-carboxy-substituted derivatives” (J Med Chem, 2005).

The chains behind the UniProt entries cited, without tags or fusion partners.
UniProt P30542, whole entry, looked up: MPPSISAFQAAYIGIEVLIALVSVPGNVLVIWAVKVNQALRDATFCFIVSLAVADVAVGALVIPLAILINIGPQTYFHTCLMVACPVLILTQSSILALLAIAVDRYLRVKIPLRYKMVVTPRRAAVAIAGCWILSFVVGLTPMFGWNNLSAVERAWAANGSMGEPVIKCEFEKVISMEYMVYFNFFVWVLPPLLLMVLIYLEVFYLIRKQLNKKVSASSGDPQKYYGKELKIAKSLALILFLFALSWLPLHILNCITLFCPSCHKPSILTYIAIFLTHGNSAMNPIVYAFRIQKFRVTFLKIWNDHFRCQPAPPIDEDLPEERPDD
UniProt P0DMS8, whole entry, looked up: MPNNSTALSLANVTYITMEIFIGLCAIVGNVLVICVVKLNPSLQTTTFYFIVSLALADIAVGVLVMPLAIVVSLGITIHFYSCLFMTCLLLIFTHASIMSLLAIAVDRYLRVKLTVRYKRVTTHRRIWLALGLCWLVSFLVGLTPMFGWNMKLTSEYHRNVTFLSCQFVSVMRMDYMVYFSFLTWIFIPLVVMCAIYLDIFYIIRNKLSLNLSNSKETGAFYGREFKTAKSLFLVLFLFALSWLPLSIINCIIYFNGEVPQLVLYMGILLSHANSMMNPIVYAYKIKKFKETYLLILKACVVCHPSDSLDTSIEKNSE

Experiment [1] deals with Adenosine receptor A2a (Bos taurus). The experiment is described as follows: Percentage inhibition of [3H]CGS 21680 binding to adenosine A2A receptor in bovine striatal membranes at 34 uM. The note with it: Striatum, Membrane.
Experiment [2] has the same test system. The experiment is described as follows: Percentage inhibition of [3H]CGS 21680 binding to adenosine A2A receptor in bovine striatal membranes at 20 uM. The note with it: Striatum, Membrane.
In experiment [3] the target is Adenosine receptors; A1 & A3 (Homo sapiens) (UniProt P30542+P0DMS8). Briefly: Selectivity for human adenosine A3 receptor over human adenosine A1 receptor. In kind it is protein assay.
Experiment [4] is described as follows: Selectivity for human adenosine A3 receptor over human adenosine A2A receptor.

What is called inhibition is how much of the control response was suppressed. Low readings indicate little suppression, high ones strong suppression. As to `Oc1nc2ccc(Cl)cc2n2nc(-c3ccsc3)nc12`, the inhibition in experiment [1] was found to be 54.2%.
Consider `CCOC(=O)c1nc2c(=O)n(C)c3ccccc3n2n1`, for which the inhibition in experiment [2] turned out to be 9.2%.
With `Cc1ccc2c(c1)n1nc(-c3ccccc3)nc1c(=O)n2C`, in experiment [2], the inhibition is 11.5%.
In experiment [1], `COc1ccc(-c2nc3c(O)nc4ccc(Cl)cc4n3n2)cc1` displayed an inhibition of 12.1%. Also, in experiment [3], the Ratio Ki stood at 0.13.
In turn, `CCOC(=O)c1nc2c(O)nc3ccc(NC(C)=O)cc3n2n1` returned an inhibition in experiment [2] of 8.8%.
Compound `Oc1nc2ccc(Cl)cc2n2nc(-c3ccccc3)nc12` yielded an inhibition in experiment [2] of 0%.
Turning to `COc1ccc(-c2nc3c(N)nc4ccc(Cl)cc4n3n2)cc1`, the inhibition in experiment [2] is 53.4%. For the same compound, the figures for the Ratio Ki in experiment [3] and in experiment [4] were 12.4 and greater than 3400, respectively.
